By UniProt entry, the sequences of proteins in these tests, tags left out. Residues count along the entry.
UniProt P03951, 19-387 partner limits assumed: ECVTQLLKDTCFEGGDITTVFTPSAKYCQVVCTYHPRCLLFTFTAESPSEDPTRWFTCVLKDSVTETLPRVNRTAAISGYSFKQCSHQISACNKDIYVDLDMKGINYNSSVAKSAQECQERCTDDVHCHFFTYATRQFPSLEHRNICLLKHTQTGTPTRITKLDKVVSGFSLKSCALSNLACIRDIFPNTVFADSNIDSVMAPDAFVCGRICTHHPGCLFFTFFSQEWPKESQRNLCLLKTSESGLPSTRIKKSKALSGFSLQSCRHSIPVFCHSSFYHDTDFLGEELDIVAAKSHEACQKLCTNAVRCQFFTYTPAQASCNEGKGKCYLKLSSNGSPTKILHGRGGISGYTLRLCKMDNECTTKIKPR
UniProt P03951, 388-625 limits assumed: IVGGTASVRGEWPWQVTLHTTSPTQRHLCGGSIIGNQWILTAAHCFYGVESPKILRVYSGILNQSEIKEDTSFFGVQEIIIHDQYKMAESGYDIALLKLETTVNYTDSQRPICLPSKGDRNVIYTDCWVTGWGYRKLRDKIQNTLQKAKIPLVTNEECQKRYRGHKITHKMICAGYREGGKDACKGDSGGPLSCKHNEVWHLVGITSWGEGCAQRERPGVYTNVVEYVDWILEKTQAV

In patent US9718840B2, “Condensed 5-oxazolidinone derivative” (SUMITOMO DAINIPPON PHARMA CO., LTD., priority 2014, dated 2017):

Molecular target: Human FXIa (Homo sapiens, UniProt P03951)
Experiment: In vitro activated factor XI (FXIa) inhibition test
Type: biochemical
Settings: read-out: FXIa Inhibition activity IC50; substrate S-2366, 37° C., 10 minutes

**Q.** How did the IC50 turn out when `COC1CCC([C@@H]2CCN(C(=O)[C@H]3CC[C@H]([C@H](N)CF)CC3)[C@@H]2C(=O)Nc2ccc3[nH]c(C(=O)O)cc3c2)CC1` (stereo partly shown) was run?
**A.** 11 nM
